Inhibition data for 78 molecules are collected here from PubChem BioAssay AID1974 (The Scripps Research Institute Molecular Screening Center, 2009).

Amino acid sequences for entries named in this document (tags omitted). A change or cut given only in a name is not applied to a line headed by its entry.
UniProt P78417: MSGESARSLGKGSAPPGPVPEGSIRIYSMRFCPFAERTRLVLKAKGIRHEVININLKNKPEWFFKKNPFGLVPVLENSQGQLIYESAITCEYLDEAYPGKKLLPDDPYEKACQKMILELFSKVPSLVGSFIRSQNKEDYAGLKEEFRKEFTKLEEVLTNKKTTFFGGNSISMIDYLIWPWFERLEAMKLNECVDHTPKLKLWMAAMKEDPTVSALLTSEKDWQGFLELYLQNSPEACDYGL

This is a selection; strong and weak results do not stand in their true shares. The source made the active and inactive calls.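 How the source made its calls: active means inhibition above the campaign mean inhibition plus 3 SD (cut at about 35% in these data); inactive means the rest.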

The experiment has as its target Glutathione S-transferase omega-1 (Homo sapiens) (UniProt P78417). Put plainly: human GSTO1 enzyme inhibition – biochemical, fluorescence polarization, counter-screen for RBBP9 inhibitor project, primary screen (AID 1974).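 Further: 0% = GSTO1-1 with DMSO and 100% = wells lacking GSTO1-1 enzyme.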 Particulars: recombinant GSTO1, activity-based probe fluorescence polarization; at 5.96 µM; active compounds read high. Background: Polarisation of emitted light reports the rotation of a fluorescent probe.
Regarding `COc1cc(C2NCCC3(OCCO3)C2(C)C)cc(OC)c1OC` (stereo not drawn), the inhibition was inactive: 4.52%. The value for `O=C(OC1CN2CCC1CC2)c1ccc(Cl)cc1` (stereo not drawn) was inactive: -3.85%; that for `CS(=O)(=O)c1ccc(Cl)c(NC(=O)COC(=O)C(O)(c2ccccc2)c2ccccc2)c1` was inactive: 29.4%; that for `COc1cc(C(=O)NCC2(N3CCOCC3)CCCCC2)cc(Cl)c1OC(C)C` was inactive: -2.16%. The value for `O=[As](O)(O)c1cccnc1` was inactive: -5.04%; that for `O=[As](O)(c1cccc(O)c1)c1cccc(O)c1` was inactive: 5.56%; that for `Cc1cccc(OCC(=O)OC2CN3CCC2CC3)c1` (stereo not drawn) was inactive: 20.9%. In the case of `C[C@@H]1C=CCP(=O)(Oc2ccccc2)O1` (stereo partly drawn), the inhibition is inactive: 3.24%. As to `C[C@H]1OP(=O)(Oc2ccccc2)C[C@@H]2O[C@@H]21` (stereo partly drawn), the inhibition was inactive: 2.25%. As to `CC(=O)c1ccc(N2CC2c2ccncc2)cc1` (stereo not drawn), the inhibition is inactive: 10.5%. The value for `CC(=O)Nc1ccc(Oc2c([N+](=O)[O-])cc([N+](=O)[O-])cc2[N+](=O)[O-])cc1` was inactive: 2.66%. Regarding `CC(=O)Nc1ccc([As](=O)(O)O)c(O)c1`, the inhibition is inactive: 4.04%. The value for `CCOc1ccc(C2=NCC(CBr)S2)cc1` (stereo not drawn) was inactive: 4.89%; that for `O=P1(Nc2nc3ccc(Cl)cc3s2)COc2ccccc2O1` (stereo not drawn) was inactive: 3.26%; that for `CC(C)(C)C(=O)NC(Sc1ccccc1)C(Cl)(Cl)Cl` (stereo not drawn) was inactive: 10.2%.

As for `CCC(=O)N1C2C3N(C(=O)CC)C1C1N(C(=O)CC)C(C(N1C(=O)CC)N3C(=O)CC)N2C(=O)CC`, the inhibition is inactive: -1.21%. The value for `O=C(OC1CN2CCC1CC2)c1ccccc1` (stereo not drawn) was inactive: 5.59%; that for `Cc1ccc(OP(=O)(Nc2ccccn2)Oc2ccc(C)cc2)cc1` was inactive: 3.41%.

As for `CC(=O)NC(SC(=S)N(CC(C)C)CC(C)C)C(Cl)(Cl)Cl` (stereo not drawn), the inhibition is inactive: -1.1%. On to `COC(=O)c1cc2c(s1)N=C(c1ccccc1)N(C)P2(=O)N1CCOCC1` (stereo not drawn), for which the inhibition was inactive: 0.14%. For the molecule `CN(C)C(=O)Oc1noc2ccccc12`, the inhibition is inactive: 7.25%. For the molecule `Cc1ccccc1OP(=O)(Nc1ccccn1)Oc1ccccc1C`, the inhibition is inactive: -1.84%. Next, `CCOC(=O)NC(Sc1ccccc1)C(Cl)(Cl)Cl` (stereo not drawn): inactive: -0.01%; `Cc1ccc(NP(=O)(Oc2cccc(C)c2)Oc2cccc(C)c2)nc1`: inactive: 1.46%; `c1ccc(-c2nn[nH]n2)c(-c2nn[nH]n2)c1`: inactive: 1.66%. For `O=C(NC1CCS(=O)(=O)C1)NP(=S)(Oc1ccccc1)Oc1ccccc1` (stereo not drawn), the inhibition was inactive: 2.71%. Next, `CCNC(=S)/N=C(\N)N[N+](=O)[O-]`: inactive: 3.26%.

`O=[As](O)(c1ccccc1)c1ccc(O)cc1`: the inhibition was inactive: -14.9%. Next, `O=[N+]([O-])c1ncn(CCn2cnc([N+](=O)[O-])n2)n1`: inactive: 0.79%; `CC(=O)NC(SC(=S)N(C)C)C(Cl)(Cl)Cl` (stereo not drawn): inactive: -1.08%.

Regarding `O=[N+]([O-])c1ccc(O)c(/C=N/Nc2ccc([N+](=O)[O-])cc2[N+](=O)[O-])c1`, the inhibition was inactive: 4.33%.

On to `O=C(OC1CN2CCC1CC2)c1cccc(Cl)c1` (stereo not drawn), for which the inhibition is inactive: -1.68%. The value for `Nc1ccc([As](=O)(O)c2ccc([N+](=O)[O-])cc2)cc1` was inactive: -8.58%; that for `C(Cc1nn[nH]n1)Cc1nn[nH]n1` was inactive: 1.35%.

Turning to `CN(C)C1(CNC(=O)c2ccc(Cl)c(S(N)(=O)=O)c2)CCCCC1`, the inhibition was inactive: 1.85%.

With `O=P(Nc1ccccn1)(c1ccc(Br)cc1)c1ccc(Br)cc1`, the inhibition was inactive: -2.66%.

Take `C[C@H]1OP(=O)(Oc2ccccc2)[C@H](O)[C@H](O)[C@H]1N=[N+]=[N-]` (stereo partly drawn): the inhibition was inactive: 5.13%.

As for `O=P(Nc1nc2ccccc2s1)(c1ccccc1)c1ccccc1`, the inhibition was inactive: -12.1%.

For the molecule `O=P(Nc1nccs1)(c1ccccc1)c1ccccc1`, the inhibition is inactive: 0.48%. The value for `CC(C)C(=O)NC(Sc1ccccc1)C(Cl)(Cl)Cl` (stereo not drawn) was inactive: 4.83%; that for `c1nnnn1CCn1cnnn1` was inactive: 9.69%; that for `CCN(/C(=N/P(=O)(N1CCOCC1)N1CCOCC1)N1CCOCC1)c1ccc(OC)cc1` was inactive: 3.49%. The value for `C[N+]1=C2C=CC=CC=C2SC12C([N+](=O)[O-])=CC([N+](=O)[O-])=C[C-]2[N+](=O)[O-]` (stereo not drawn) was active: 81%; that for `Nc1ccc([As](=O)(O)c2ccc(N)cc2)cc1` was inactive: 3.6%; that for `CC1CCN(C(=O)Oc2c(Cl)cc(Cl)c3cccnc23)CC1` was inactive: -4.71%. With `CN(C)C(=O)OCCc1n(C)cc[n+]1C`, the inhibition is inactive: 3.26%. As for `CC(C)=N/N=C(\N)N[N+](=O)[O-]`, the inhibition was inactive: -2.72%.

For the molecule `COc1ccc(C2=NCC(CBr)S2)cc1` (stereo not drawn), the inhibition is inactive: -6.97%. On to `O=[N+]([O-])c1cc([N+](=O)[O-])c(CCNc2ccccc2)c([N+](=O)[O-])c1`, for which the inhibition is active: 43.3%. Next, `CCc1nc2c(n1)c1c(non1O)c1c2no[n+]1[O-]`: inactive: 31.3%. Next, `Cc1ccc(NP(=O)(Oc2ccccc2)Oc2ccccc2)nc1`: inactive: -3.63%; `CC(=O)N1C2C3N(C(C)=O)C1C1N(C(C)=O)C(C(N1C(C)=O)N3C(C)=O)N2C(C)=O`: inactive: 6.96%; `O=[N+]([O-])c1cccc2n[nH]nc12`: inactive: -1.9%. The value for `O=[N+]([O-])c1ncn(CCn2ncnc2[N+](=O)[O-])n1` was inactive: 13.6%. Consider `CC(C)(C)C(=O)NC(Sc1ccncn1)C(Cl)(Cl)Cl` (stereo not drawn), for which the inhibition was inactive: 5.77%. Regarding `O=[N+]([O-])c1cccc(NC2=NCC(CBr)S2)c1` (stereo not drawn), the inhibition is inactive: 0.72%. The value for `O=C(Nc1cc([As](=O)(O)O)ccc1O)c1ccccc1` was inactive: 3.77%. The value for `O=[N+]([O-])c1cc([N+](=O)[O-])c(CCN2CCOCC2)c([N+](=O)[O-])c1` was active: 66%; that for `CCN(N=Nc1nonc1N)c1nonc1N` was inactive: -2.56%. The value for `O=P(Nc1nc2ccc(Cl)cc2s1)(c1ccccc1)c1ccccc1` was inactive: -4.21%; that for `O=C(O)c1ccccc1[As](=O)(O)O` was inactive: -6.07%. As for `CC(=O)Nc1ccc([As](=O)(O)O)cc1`, the inhibition was inactive: 2.58%. The value for `CN(C(=O)Cc1ccc(Cl)c(Cl)c1)[C@H]1CCCC[C@@H]1N1CCCC1` was inactive: 23.9%. The value for `Cc1ccc(NP(=O)(Oc2ccccc2F)Oc2ccccc2F)nc1` was inactive: 5.49%; that for `CCOP(=O)(Nc1ccccc1)OCC` was inactive: -2.71%; that for `Cc1cc(SC(NC(=O)c2ccc(F)cc2)C(Cl)(Cl)Cl)ncn1` (stereo not drawn) was inactive: 4.56%. Regarding `Cc1c2non([O-])c-2c(C)[n+](=O)[n+]1[O-]`, the inhibition was inactive: -7.22%. Next, `O=C(NC(Sc1ccncn1)C(Cl)(Cl)Cl)c1ccccc1` (stereo not drawn): inactive: 9.29%; `Oc1ccccc1CNc1ccccn1`: inactive: -1.5%. Regarding `CC(C)CC(=O)NC(Sc1ccc(Cl)cc1)C(Cl)(Cl)Cl` (stereo not drawn), the inhibition is inactive: -0.71%. Next, `Nc1cc(N)c2nonc2c1[N+](=O)[O-]`: inactive: 18.9%. Next, `Cc1ccc(N/C(=N/P(=O)(N2CCOCC2)N2CCOCC2)N2CCOCC2)cc1`: inactive: 4.53%. The value for `CN(C(=O)Cc1ccc(Cl)c(Cl)c1)[C@H]1CCCC[C@H]1N1CCCC1` was inactive: 4.34%; that for `NC(=O)c1cc([N+](=O)[O-])cc([N+](=O)[O-])c1N` was inactive: 6.88%. `Clc1ccc(Cl)c(NC2=NCC(CBr)S2)c1` (stereo not drawn): the inhibition is inactive: -5.2%. The value for `CN1CCCC(OC(=O)C(c2ccccc2)c2ccccc2)C1` (stereo not drawn) was inactive: -2.4%; that for `Cc1ccc(OP(=O)(Nc2nccs2)Oc2ccc(C)cc2)cc1` was inactive: 10.1%; that for `COc1ccccc1OP(=O)(Nc1ccc(C)cn1)Oc1ccccc1OC` was inactive: 0.61%.

As usually defined, the inhibition is the drop in the measured response relative to a control, in per cent.
